An excerpt weighted towards active compounds, which were near 2.8% of everything screened.
PglD DTNB = blocks C. jejuni PglD acetyltransferase activity; purified PglD enzyme, DTNB colorimetric CoA detection; inhibition, % at 12.5 µM; actives 0.098% (n = 360,000); AID 602405; in the data active means inhibition above about 16%, passing the limit was not always enough
esBAF inh = blocks esBAF chromatin remodeling in mouse ES cells; Bmi1-luciferase knock-in reporter, 24 h; 100% = twice the neutral-well signal; reporter increase, % at 12.5 µM; actives 2% (n = 350,000); in the data active means activation above about 40%;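 further: 0% = median of the plate's neutral control wells and 100% = double that signal; a rise in the Bmi1 reporter signal indicates esBAF inhibition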
PGC1a acetyl inh = modulators of PGC1a acetylation; inhibition, % at 15.6 µM; AID 651687; actives 0.17% (n = 350,000); U2OS PGC1a acetylation, AlphaScreen anti-acetyl-lysine; with virally co-expressed GCN5 acetyltransferase;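 active means every replicate shows inhibition of at least 40%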;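 further: 0% = neutral control wells and 100% = positive control wells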
C2C12 statin = suppression of simvastatin myotoxicity; C2C12 myotubes + simvastatin, ATP luminescence, 48 h; scaled: DMSO 0, geranylgeraniol control 100; rescue of ATP level, % at 7.49 µM; actives 0.78% (n = 330,000); AID 602340;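 active means mean ATP rescue above about 67%, or every replicate alone reaching that limit, limit read from the data, passing the limit was not always enough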;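 further: myotubes were challenged with 10 µM simvastatin during compound exposure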
E-selectin induc = E-selectin induction on HUVECs | P16581 | HUVEC E-selectin immunofluorescence imaging; normalized: neutral wells 0, TNF-alpha wells 100 | activation, % at 7.58 µM | actives 0.37% (n = 260,000) | AID 686992;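 active means mean E-selectin-positive cell signal at least 10% of the positive control, reached in at least 60% of replicates, without over 20% cell loss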
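Test system: HUVEC | Signal: Immunofluorescence imaging | Read-out: Percent E-selectin-positive cells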
Yeast UUG start = modulators of yeast start codon fidelity, primary screen, whole organism, S. cerevisiae, single point, plate reader | AID 602363, 2012 | actives 0.13% (n = 350,000) | activity score, % at 18.7 µM | S. cerevisiae UUG-firefly luciferase reporter, luminescence/redox ratio;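 active means replicate mean at a twofold rise or more, about +100% in these data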;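 further: firefly luciferase made from a UUG start codon reports start codon fidelity; reporter light over untreated wells divided by growth signal over untreated wells; some hits fall short of that in this replicate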
* = called active by the depositor; . = no result given.

entry	Compound	PglD DTNB	esBAF inh	PGC1a acetyl inh
1	Cc1cc(Cl)c2oc(C(=O)N(C)C3CCOC3)c(C)c2c1 (stereo not drawn)	-2	42*	-6
2	Cc1cc(Cl)c2oc(C(=O)N3CCN(c4cnccn4)CC3)c(C)c2c1	.	.	.
3	COc1cccc(NC(=O)N[C@H]2CC[C@H](CC(=O)NCc3ccncn3)O[C@@H]2CO)c1	1	1	-4
4	Cc1cc(Cl)c2oc(C(=O)N3CCN(c4cccc(C)n4)CC3)c(C)c2c1	-5	74*	.
5	CO[C@@H]1CN(C)C(=O)c2ccc(NC(C)=O)cc2OC[C@@H](C)N(Cc2nccs2)C[C@H]1C	-1	-4	11
6	CCNC(=S)NNC(=O)c1csc2ccccc12	0	1	59*
7	CC(C)CNC(=S)NNC(=O)c1csc2ccccc12	2	16	10
8	O=C(O)[C@@H]1[C@@H](CO)[C@@H]2Cn3c(ccc(/C=C/c4ccccc4)c3=O)[C@@H]2N1Cc1ccc2c(c1)OCO2	-2	18	.

entry	C2C12 statin	E-selectin induc	Yeast UUG start
1	-2	.	11
2	.	1	.
3	2	0	-6
4	9	0	1
5	-10	0	-27
6	-9	.	-13
7	-20	.	-13
8	20	1	.

Remaining list, next part
entry	Compound	PglD DTNB	esBAF inh	PGC1a acetyl inh
9	O=C1CC(c2ccccc2)=Nc2ccccc2N1	-1	12	3
10	O=C1CC(/C=C/c2ccncc2)=Nc2ccccc2N1	1	88*	.
11	C=CCn1c(=O)c(C(=O)Nc2ccccc2C)c(O)c2ccccc21	-3	61*	9
12	CCn1c(=O)c(C(=O)Nc2ccccc2C)c(O)c2ccccc21	-4	44*	-1
13	CCCn1c(=O)c(C(=O)Nc2ccccc2C)c(O)c2ccccc21	-7	19	6
14	CCCn1c(=O)c(C(=O)Nc2ccccc2N)c(O)c2ccccc21	1	43*	9
15	CCC(=O)N1CC2(C1)CN(CC1CCOCC1)[C@H](CO)c1c2c2ccc(OC)cc2n1C	.	.	4
16	CNC(=O)C[C@H]1CC[C@@H]2[C@@H](COc3ccc(NC(=O)c4ccccc4OC)cc3C(=O)N2C)O1	1	0	-4

entry	C2C12 statin	E-selectin induc	Yeast UUG start
9	29	.	-8
10	2	0	-8
11	-8	0	8
12	2	.	-13
13	-21	.	-15
14	-4	0	-7
15	.	0	.
16	-1	0	9

The list goes on:
entry	Compound	PglD DTNB	esBAF inh	PGC1a acetyl inh
17	CCNC(=O)Nc1ccc2c(c1)C(=O)N(C)[C@@H]1CC[C@H](CC(=O)NCc3ccc(F)cc3)O[C@@H]1CO2	27	1	-2
18	COc1ccc(/C=C/c2nc(-c3ccccc3O)n[nH]2)cc1OC	4	62*	-15
19	CC(C)C(OC(=O)c1ccccc1)c1nccc2ccccc12 (stereo not drawn)	5	72*	.
20	COc1cccc(C(=O)CN2C3=NCCCN3c3ccccc32)c1	3	-3	-6
21	Cc1ccc(C)c(C(=O)CN2C3=NCCCN3c3ccccc32)c1	1	-3	0
22	C[C@@H]1CCCCO[C@H](CN(C)Cc2ccccc2)[C@@H](C)CN([C@@H](C)CO)C(=O)c2cc(NC(=O)NC3CCCCC3)ccc2O1	5	2	-10
23	Clc1ccccc1Cn1nnc(-c2cccs2)n1	3	56*	-7
24	CCCOC(=O)c1ccc2c(c1)C(=O)N(c1ccccc1)C2=O	4	58*	-13

entry	C2C12 statin	E-selectin induc	Yeast UUG start
17	12	0	-1
18	-4	.	0
19	8	.	1
20	134*	.	-12
21	-12	.	-13
22	.	0	15
23	-3	.	11
24	-3	.	-21

(further entries)
entry	Compound	PglD DTNB	esBAF inh	PGC1a acetyl inh
25	O=C(Cc1cccnc1)N1CC2(C1)[C@@H](c1ccccc1)[C@@H](CO)N2C(=O)C1CC1	.	.	-6
26	c1ccc(-c2nc(-c3ccc(-c4ccon4)s3)no2)cc1	13	53*	.
27	c1ccc(-c2nc(-c3ccncc3)no2)cc1	3	39	15
28	COc1cc(/C=C/C(=O)OCC(=O)N2CCC(C)CC2)ccc1O	-5	-4	15
29	COc1cc(/C=C/C(=O)OC2CC3CCC2(C)C3(C)C)ccc1O (stereo not drawn)	4	47*	-20
30	C=CCn1c(=NC(=O)c2cccs2)sc2cccc(OC)c21	.	2	.
31	C#CCn1c(=NC(=O)c2ccc(Br)s2)sc2cccc(OC)c21	-2	54*	2
32	C[C@@H]1CCCCO[C@@H](CN(C)Cc2ccccc2)[C@H](C)CN([C@H](C)CO)C(=O)c2cc(NS(C)(=O)=O)ccc2O1	10	-1	-4

entry	C2C12 statin	E-selectin induc	Yeast UUG start
25	.	0	.
26	1	.	6
27	.	.	-34
28	-6	0	-3
29	8	.	-14
30	7	0	.
31	-14	0	-12
32	1	0	3

Other records
entry	Compound	PglD DTNB	esBAF inh	PGC1a acetyl inh
33	C[C@@H]1CN([C@@H](C)CO)C(=O)c2cc(NC(=O)C3CCCCC3)ccc2O[C@@H]1CN(C)CC1CCCCC1	8	3	-6
34	CCc1ccc(-c2csc(-c3c[nH]c4ccccc34)n2)cc1	-1	66*	.
35	C[C@H]1CN([C@@H](C)CO)S(=O)(=O)c2ccc(C3=CCCC3)cc2O[C@H]1CN(C)Cc1ccccn1	1	-1	-5
36	Cc1cc2cc3c(cc2nc1SCC(=O)N1CCOCC1)OCO3	0	10	.
37	N#Cc1cc2cc3c(cc2nc1SCC(=O)N1CCOCC1)OCO3	2	52*	.
38	COC(=O)CSc1nc2cc3c(cc2cc1C#N)OCO3	.	.	-14
39	CC(C)OC(=O)CSc1nc2cc3c(cc2cc1C#N)OCO3	0	59*	-10
40	COc1ccccc1-c1ccc2c(c1)[C@@H]1[C@@H](CCN1S(=O)(=O)c1cn(C)cn1)[C@@H](CO)N2	-1	30	-1

entry	C2C12 statin	E-selectin induc	Yeast UUG start
33	-3	.	16
34	8	1	-11
35	-2	-1	.
36	2	0	-6
37	-3	.	-6
38	.	.	.
39	3	.	-17
40	6	-1	-3

Later entries
entry	Compound	PglD DTNB	esBAF inh	PGC1a acetyl inh
41	CSc1ncc(C(=O)Nc2ccc(C(C)=O)cc2)c(-c2ccccc2)n1	4	61*	7
42	CSCCC(c1nc2ccccc2[nH]1)n1c(-c2ccc(C)cc2)nc2ccccc21 (stereo not drawn)	.	.	.
43	Cc1ccc(C(c2nc3ccccc3[nH]2)n2c(-c3ccccc3)nc3ccccc32)cc1 (stereo not drawn)	0	70*	-11
44	c1ccc(Cn2ccnc2C2OCCO2)cc1	-2	.	.
45	c1ccc(Cn2ccnc2-c2ccco2)cc1	-3	56*	14
46	CCCNC(=O)N1C[C@@H](O)COC[C@H]2O[C@H](CC(=O)N3CCCCC3)CC[C@@H]21	0	-1	5
47	COc1ccc(S(=O)(=O)Nc2cccc3c2O[C@@H](CN(C)S(=O)(=O)c2ccc(OC)cc2)[C@@H](C)CN([C@H](C)CO)C3=O)cc1	.	.	.
48	Cc1noc(C)c1NC(=O)Nc1cccc2c1O[C@@H](CN(C)S(=O)(=O)c1ccc(F)cc1)[C@@H](C)CN([C@@H](C)CO)C2=O	4	-6	16

entry	C2C12 statin	E-selectin induc	Yeast UUG start
41	10	1	-24
42	.	0	.
43	2	3	-24
44	.	0	-11
45	38	.	-17
46	16	0	18
47	.	0	.
48	0	-4	4

Full records from above. Order of screens: PglD DTNB | esBAF inh | PGC1a acetyl inh | C2C12 statin | E-selectin induc | Yeast UUG start
Cc1noc(C)c1NC(=O)Nc1cccc2c1O[C@@H](CN(C)S(=O)(=O)c1ccc(F)cc1)[C@@H](C)CN([C@@H](C)CO)C2=O is listed with 4 | -6 | 16 | 0 | -4 | 4
c1ccc(Cn2ccnc2-c2ccco2)cc1 is listed with -3 | 56* | 14 | 38 | . | -17
CSc1ncc(C(=O)Nc2ccc(C(C)=O)cc2)c(-c2ccccc2)n1 is listed with 4 | 61* | 7 | 10 | 1 | -24
COc1ccc(S(=O)(=O)Nc2cccc3c2O[C@@H](CN(C)S(=O)(=O)c2ccc(OC)cc2)[C@@H](C)CN([C@H](C)CO)C3=O)cc1 is listed with . | . | . | . | 0 | .

Source: PubChem
